Results from patent US20200132691A1, “DETECTION AND TARGETING OF TUMOR-PROMOTING NEUTROPHILS” (THE GENERAL HOSPITAL CORPORATION, priority 2017, published 2020).

What was measured:
bone marrow cells = assay: In vitro alkaline phosphatase assay for osteoblastic colony formation; format: cell-based, mouse; conditions: serum from tumor-free mice supplemented with sRAGE vs control conditions
Procedure: To study whether tumor derived circulating factors can affect the osteogenic potential, osteoblastic colony formation was investigated after addition of serum pooled from individual mice that were either tumor-bearing or tumor-free. In some experiments tumor-free serum with or without sRAGE was added. Long bones (femur and tibia) and vertebrae of tumor-free C57BL/6 mice were harvested and flushed. Single cell suspensions were generated using 70 µm cell strainer and red blood cells removed in a ACK lysis step. Cells were counted and resuspended (4×10^7/ml) in osteogenic medium (DMEM supplemented with 10% FBS and 1% penicillin/streptomycin, 10 mM B-glycerophosphate and 50 μg/ml ascorbic acid). 4×10^6 cells were transferred to 6 well cell culture plates and 200 μl serum of tumor-bearing or tumor-free mice added. Medium was refreshed every second day and non-adherent cells were removed. Cells were fixed after 9-10 days by adding 4% PFA for 8 min followed by 2 washing steps with H2O and the alkaline phosphate substrate reaction (B5655, Sigma) according to manufactures procedure. As counter stain, Nucleofast Red (Polysciences, Inc) was used. The number of ALP positive colonies was evaluated by 2-3 independent persons in a blinded manner.

developing neutrophils = assay: In vitro co-culture of hematopoietic precursors and bone marrow stromal cells +/- sRAGE; format: cell-based, mouse
Procedure: To test whether sRAGE altered neutrophil maturation from hematopoietic precursors via stromal cells, co-culture experiments were performed. In detail, 1×10^3 ST2 cells per well were cultured in 96 well plates for two days. Then, bone marrow was harvested from tumor-free mice and depleted of differentiated cells using negative MACS bead separation (Abs specific for B220, CD19, Ter119, CD11c, CD11b, NK1.1, Dx5, CD127, Ly-6G and CD90.2 were utilized). The flow-through was collected. The following conditions were tested: ST2 cells, with or without 1×10^4 lineage negative bone marrow cells, and with increased doses of sRAGE (namely: no sRAGE, 0.01 μg/ml, 0.1 μg/ml, 1 μg/ml). Neutrophil maturation was evaluated after three days by staining for CD11b, Ly-6G and CXCR2 surface expression using flow cytometry (1).

sRAGE: The circulating form of RAGE, referred to as soluble RAGE; added exogenously to cultures
osteoblastic colony forming units (bone marrow cells): significantly increased
CXCR2 expression on developing neutrophils (developing neutrophils; Lin- cKit+ bone marrow hematopoietic cells, increasing doses of exogenous sRAGE): increases
CXCR2 expression, dependence on stromal cells (developing neutrophils; with or without ST2 pre-osteoblastic cell line): increased only in the presence of bone marrow stromal cells
